Measurements from ChEMBL document CHEMBL5137039, “Therapeutic potentials and structure-activity relationship of 1,3-benzodioxole N-carbamothioyl carboxamide derivatives as selective and potent antagonists of P2X4 and P2X7 receptors” (Eur J Med Chem, 2022).

The chains behind the UniProt entries cited, without tags or fusion partners. Where a name states a change or a piece, a line headed by the entry shows the natural chain unless it says otherwise.
UniProt Q93086: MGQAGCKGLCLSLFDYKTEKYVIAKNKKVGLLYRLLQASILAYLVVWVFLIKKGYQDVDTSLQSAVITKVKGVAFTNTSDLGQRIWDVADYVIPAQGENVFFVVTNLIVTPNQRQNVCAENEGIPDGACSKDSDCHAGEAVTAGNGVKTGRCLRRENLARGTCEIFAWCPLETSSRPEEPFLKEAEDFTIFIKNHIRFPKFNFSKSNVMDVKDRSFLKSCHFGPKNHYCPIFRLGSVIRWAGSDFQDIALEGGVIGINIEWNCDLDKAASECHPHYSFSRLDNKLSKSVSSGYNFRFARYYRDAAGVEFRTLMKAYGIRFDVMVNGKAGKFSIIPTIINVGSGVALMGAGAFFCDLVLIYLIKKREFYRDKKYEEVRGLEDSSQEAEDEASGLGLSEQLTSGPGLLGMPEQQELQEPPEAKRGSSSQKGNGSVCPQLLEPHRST
UniProt Q99572: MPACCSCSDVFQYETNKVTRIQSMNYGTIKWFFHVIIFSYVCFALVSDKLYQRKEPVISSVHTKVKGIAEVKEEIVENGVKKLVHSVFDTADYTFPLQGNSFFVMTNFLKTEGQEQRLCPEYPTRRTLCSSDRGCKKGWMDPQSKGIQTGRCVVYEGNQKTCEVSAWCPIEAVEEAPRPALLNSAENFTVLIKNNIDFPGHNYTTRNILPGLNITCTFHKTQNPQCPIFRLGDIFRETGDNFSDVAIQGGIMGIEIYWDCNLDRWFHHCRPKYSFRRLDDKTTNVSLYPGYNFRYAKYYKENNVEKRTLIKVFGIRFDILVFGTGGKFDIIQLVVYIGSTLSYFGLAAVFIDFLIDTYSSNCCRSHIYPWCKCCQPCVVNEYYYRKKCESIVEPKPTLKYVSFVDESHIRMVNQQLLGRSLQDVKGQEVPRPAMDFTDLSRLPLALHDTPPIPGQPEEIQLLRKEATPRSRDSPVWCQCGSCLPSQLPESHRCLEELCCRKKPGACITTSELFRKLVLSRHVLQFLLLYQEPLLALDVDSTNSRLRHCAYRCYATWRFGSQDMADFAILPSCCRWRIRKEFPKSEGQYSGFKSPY

Experiments:
Format in all cases: cell-based
Parameters in all cases: scale not given: the % may be the effect or the level left
P2X purinoceptor 5 = P2X purinoceptor 5 (Homo sapiens, UniProt Q93086); assay: Antagonist activity against human P2X5R stably transfected in human 1321N1 cells at 50 uM incubated for 30 mins by Fura-2 AM staining based calcium influx assay relative to control
P2X purinoceptor 7 = P2X purinoceptor 7 (Homo sapiens, UniProt Q99572); assay: Antagonist activity against human P2X7R stably transfected in human 1321N1 cells at 50 uM incubated for 30 mins by Fura-2 AM staining based calcium influx assay relative to control
[1] = molecular target: T1, P2X purinoceptor 4 (Homo sapiens) (UniProt Q99571); assay: Antagonist activity against human P2X4R stably transfected in human 1321N1 cells at 50 uM incubated for 30 mins by Fura-2 AM staining based calcium influx assay relative to control
T1 sequence (whole entry): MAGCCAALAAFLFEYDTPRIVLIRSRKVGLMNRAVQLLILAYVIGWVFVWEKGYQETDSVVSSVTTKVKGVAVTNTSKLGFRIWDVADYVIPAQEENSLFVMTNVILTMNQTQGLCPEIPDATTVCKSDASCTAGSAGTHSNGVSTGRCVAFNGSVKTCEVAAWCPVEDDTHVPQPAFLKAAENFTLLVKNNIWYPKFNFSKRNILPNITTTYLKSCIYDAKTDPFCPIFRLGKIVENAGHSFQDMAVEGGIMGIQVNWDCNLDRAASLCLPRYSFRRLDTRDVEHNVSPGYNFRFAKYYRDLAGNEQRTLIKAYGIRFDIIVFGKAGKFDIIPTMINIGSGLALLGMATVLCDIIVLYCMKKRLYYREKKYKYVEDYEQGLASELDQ

Row | Compound | Activity (P2X purinoceptor 5) [%] | Activity (P2X purinoceptor 7) [%] | Activity [1] [%] | Activity (P2X purinoceptor 7; filed as antagonist) [%]
1 | O=C(NC(=S)Nc1ccccc1O)c1ccc2c(c1)OCO2 | 32 | 30 |  | 
2 | O=C(NC(=S)Nc1cccc(O)c1)c1ccc2c(c1)OCO2 | 28 |  | 32 | 42
